Results reported in ChEMBL document CHEMBL1153689, “Conversion of the phytoestrogen coumestrol into a selective estrogen receptor modulator (SERM) by attachment of an amine-containing sidechain” (Bioorg Med Chem Lett, 1996).

By UniProt entry, the sequences of proteins in these tests, tags left out.
UniProt Q92731, whole entry, looked up: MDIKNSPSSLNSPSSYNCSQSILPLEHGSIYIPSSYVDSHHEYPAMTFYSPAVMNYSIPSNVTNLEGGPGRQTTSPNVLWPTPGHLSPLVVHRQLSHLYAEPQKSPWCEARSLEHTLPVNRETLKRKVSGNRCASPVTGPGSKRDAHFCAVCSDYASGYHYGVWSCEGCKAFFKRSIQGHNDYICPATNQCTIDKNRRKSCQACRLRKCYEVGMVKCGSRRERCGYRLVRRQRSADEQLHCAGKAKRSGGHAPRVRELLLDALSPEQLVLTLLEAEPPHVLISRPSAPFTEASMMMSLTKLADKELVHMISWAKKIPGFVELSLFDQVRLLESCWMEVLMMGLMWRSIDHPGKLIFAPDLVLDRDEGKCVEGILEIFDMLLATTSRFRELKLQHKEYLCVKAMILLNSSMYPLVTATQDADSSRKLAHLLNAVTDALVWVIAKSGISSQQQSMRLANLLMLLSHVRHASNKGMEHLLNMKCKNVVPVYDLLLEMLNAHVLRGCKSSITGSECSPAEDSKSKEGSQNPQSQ
UniProt P03372, whole entry, looked up: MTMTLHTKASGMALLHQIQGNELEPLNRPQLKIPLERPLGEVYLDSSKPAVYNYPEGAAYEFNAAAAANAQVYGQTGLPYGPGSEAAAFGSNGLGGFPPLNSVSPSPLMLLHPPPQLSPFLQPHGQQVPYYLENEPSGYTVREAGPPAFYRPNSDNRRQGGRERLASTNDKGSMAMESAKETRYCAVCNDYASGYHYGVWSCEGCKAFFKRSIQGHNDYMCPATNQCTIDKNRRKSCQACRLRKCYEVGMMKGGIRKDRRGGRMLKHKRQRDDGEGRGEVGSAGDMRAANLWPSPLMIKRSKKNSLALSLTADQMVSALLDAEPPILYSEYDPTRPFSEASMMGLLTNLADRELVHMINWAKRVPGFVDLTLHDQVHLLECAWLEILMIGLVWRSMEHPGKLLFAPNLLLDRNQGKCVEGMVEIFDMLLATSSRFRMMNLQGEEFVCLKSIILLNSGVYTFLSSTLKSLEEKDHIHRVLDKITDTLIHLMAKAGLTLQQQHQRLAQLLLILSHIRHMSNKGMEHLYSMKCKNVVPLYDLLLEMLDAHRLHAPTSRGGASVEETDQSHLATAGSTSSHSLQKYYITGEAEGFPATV

Assays:
[1] = molecular target: T1, Estrogen receptor (Homo sapiens) (UniProt Q92731+P03372); assay: Binding affinity for estrogen receptor in MCF-7 cell lysate relative to coumestrol; type: cell-based
[2] = molecular target: T1, Estrogen receptor (Homo sapiens); assay: Binding affinity for estrogen receptor in MCF-7 cell lysate relative to estradiol; type: cell-based

RBA [1]: 13.2% | RBA [2]: 7.2%
Compound: Oc1ccc2c(c1)OC(c1ccc(OCCN3CCCCC3)cc1)c1c-2oc2cc(O)ccc12 (configuration not stated)
